# Experimental data published in the NIST ThermoML archive (doi:10.1021/je9008969).
# Numbers after ± are expanded uncertainties.
# Test: cn = amount concentration of the nth substance listed, in mol/dm3
# Details: 298.15 K, 101 kPa, Liquid, Alternating current cell with electrodes
smiles,measurement,setting,value
CCC[N+](CCC)(CCC)CCC.[O-][Cl+3]([O-])([O-])[O-] [tetrapropylammonium perchlorate] + CC(=O)CC(C)C,molar conductivity,c1 = 6.329e-05,0.00855 ± 0.00017 S·m2/mol
same,molar conductivity,c1 = 8.893e-05,0.00817 ± 0.00016 S·m2/mol
same,molar conductivity,c1 = 0.0001214,0.00778 ± 0.00016 S·m2/mol
same,molar conductivity,c1 = 0.000152,0.00744 ± 0.00015 S·m2/mol
same,molar conductivity,c1 = 0.000209,0.00698 ± 0.00014 S·m2/mol
same,molar conductivity,c1 = 0.0002751,0.00657 ± 0.00013 S·m2/mol
same,molar conductivity,c1 = 0.00037,0.00612 ± 0.00012 S·m2/mol
same,molar conductivity,c1 = 0.0004913,0.00569 ± 0.00011 S·m2/mol
same,molar conductivity,c1 = 0.0006591,0.00526 ± 0.00011 S·m2/mol
same,molar conductivity,c1 = 0.0008839,0.00484 ± 9.7e-05 S·m2/mol
same,molar conductivity,c1 = 0.001183,0.00444 ± 8.9e-05 S·m2/mol
same,molar conductivity,c1 = 0.001582,0.00406 ± 8.1e-05 S·m2/mol
same,molar conductivity,c1 = 0.002124,0.00371 ± 7.4e-05 S·m2/mol
same,molar conductivity,c1 = 0.002843,0.00338 ± 6.8e-05 S·m2/mol
same,molar conductivity,c1 = 0.003794,0.00308 ± 6.2e-05 S·m2/mol
